What was measured:
CRF1R = target: T1, CRF1R (Homo sapiens, UniProt P34998); experiment: CRF1R agonist activation (EC50 / Emax), called comparative CRF binding; type: cell-based; conditions: for EC50: CRF1R EC50; for Emax: read-out: CRF1R Emax
T1 sequence (P34998 24-415): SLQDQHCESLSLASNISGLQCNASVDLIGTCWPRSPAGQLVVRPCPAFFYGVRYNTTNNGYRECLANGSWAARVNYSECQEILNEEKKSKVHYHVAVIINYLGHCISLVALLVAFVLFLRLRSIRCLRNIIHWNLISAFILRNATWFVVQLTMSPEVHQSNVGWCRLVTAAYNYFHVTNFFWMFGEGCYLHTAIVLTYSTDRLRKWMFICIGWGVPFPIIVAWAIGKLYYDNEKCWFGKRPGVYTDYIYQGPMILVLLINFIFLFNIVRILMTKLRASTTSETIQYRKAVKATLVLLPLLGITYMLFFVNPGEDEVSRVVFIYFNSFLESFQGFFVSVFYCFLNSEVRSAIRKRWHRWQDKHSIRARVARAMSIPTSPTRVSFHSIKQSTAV
In short: (§1)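 Cells expressing full-length human CRF1R or CRF2R were exposed to peptide or vehicle control, and receptor activation was gauged as cAMP induction. cAMP was measured in cell lysates or via a cAMP-responsive element driving a reporter gene such as luciferase, CAT, GFP or alkaline phosphatase.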

CRF2R = target: T2, CRF2R (Homo sapiens, UniProt Q13324); experiment: CRF2R agonist activation (EC50 / Emax), called comparative CRF binding; type: cell-based; conditions: for Emax: read-out: CRF2R Emax
T2 sequence (Q13324 1-411): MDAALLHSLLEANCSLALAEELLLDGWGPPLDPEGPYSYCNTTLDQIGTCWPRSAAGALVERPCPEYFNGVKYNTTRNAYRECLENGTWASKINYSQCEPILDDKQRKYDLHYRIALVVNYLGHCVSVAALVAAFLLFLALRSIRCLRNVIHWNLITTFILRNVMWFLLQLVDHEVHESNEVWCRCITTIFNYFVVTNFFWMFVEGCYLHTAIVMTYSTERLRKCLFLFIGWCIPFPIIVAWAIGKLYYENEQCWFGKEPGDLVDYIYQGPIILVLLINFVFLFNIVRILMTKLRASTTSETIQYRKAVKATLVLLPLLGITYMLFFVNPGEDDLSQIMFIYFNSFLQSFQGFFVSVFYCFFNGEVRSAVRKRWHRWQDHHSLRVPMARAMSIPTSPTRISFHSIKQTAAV
In short: as §1

| SMILES | EC50 (CRF1R) [nM] | Emax (CRF1R) [%] | EC50 (CRF2R) [nM] | Emax (CRF2R) [%] |
| --- | --- | --- | --- | --- |
| CC[C@H](C)[C@H](NC(=O)[C@@H](NC(=O)[C@H](CC(=O)O)NC(=O)[C@H](CC(C)C)NC(=O)[C@H](CC(C)C)NC(=O)[C@H](CC(C)C)NC(=O)[C@H](CCCNC(=N)N)NC(=O)[C@H](CC(N)=O)NC(=O)[C@H](CC(N)=O)NC(=O)[C@H](C)NC(=O)[C@H](C)NC(=O)[C@H](CCC(N)=O)NC(=O)[C@H](CCC(N)=O)NC(=O)[C@H](CCCCN)NC(=O)[C@H](CCC(=O)O)NC(=O)[C@H](CCCCN)NC(=O)[C@H](CCC(=O)O)NC(=O)[C@H](CCC(N)=O)NC(=O)[C@H](CCCCN)NC(=O)[C@H](CCC(=O)O)NC(=O)[C@@H](NC(=O)[C@H](CCC(=O)O)NC(=O)[C@@H](NC(=O)[C@H](CCSC)NC(=O)[C@H](CCCCN)NC(=O)[C@H](CCCNC(=N)N)NC(=O)[C@H](CC(C)C)NC(=O)[C@H](CC(C)C)NC(=O)[C@H](CCC(N)=O)NC(=O)[C@H](Cc1ccccc1)NC(=O)[C@@H]1CCCN1C(=O)[C@H](CC(C)C)NC(=O)[C@H](CC(=O)O)NC(=O)[C@@H](NC(=O)[C@H](CO)NC(=O)[C@@H](NC(=O)[C@@H]1CCCN1C(=O)[C@@H]1CCCN1C(=O)CNC(=O)[C@@H]1CCC(=O)N1)[C@@H](C)CC)[C@@H](C)CC)[C@@H](C)CC)[C@@H](C)CC)[C@@H](C)O)C(N)=O [compound 84] | 82.2 | 99 | 1.77 | 100 |
| CC[C@H](C)[C@H](NC(=O)[C@@H](NC(=O)[C@H](CC(=O)O)NC(=O)[C@H](CC(C)C)NC(=O)[C@H](CC(C)C)NC(=O)[C@H](CC(C)C)NC(=O)[C@H](C)NC(=O)[C@H](CC(N)=O)NC(=O)[C@H](CC(N)=O)NC(=O)[C@H](C)NC(=O)[C@H](C)NC(=O)[C@H](CCC(N)=O)NC(=O)[C@H](CCC(N)=O)NC(=O)[C@H](CCCCN)NC(=O)[C@H](CCC(=O)O)NC(=O)[C@H](CCCCN)NC(=O)[C@H](CCC(=O)O)NC(=O)[C@H](CCC(N)=O)NC(=O)[C@H](CCCCN)NC(=O)[C@H](CCC(=O)O)NC(=O)[C@@H](NC(=O)[C@H](CCC(=O)O)NC(=O)[C@@H](NC(=O)[C@H](CCSC)NC(=O)[C@H](CCCCN)NC(=O)[C@H](CCCNC(=N)N)NC(=O)[C@H](CC(C)C)NC(=O)[C@H](CC(C)C)NC(=O)[C@H](Cc1c[nH]cn1)NC(=O)[C@H](Cc1ccc(O)cc1)NC(=O)[C@@H]1CCCN1C(=O)[C@H](CC(C)C)NC(=O)[C@H](CC(=O)O)NC(=O)[C@@H](NC(=O)[C@H](CO)NC(=O)[C@@H](NC(=O)[C@@H]1CCCN1C(=O)[C@@H]1CCCN1C(=O)CNC(=O)[C@@H]1CCC(=O)N1)[C@@H](C)CC)[C@@H](C)CC)[C@@H](C)CC)[C@@H](C)CC)[C@@H](C)O)C(N)=O [compound 314] | 979 | 82.4 | 10.3 | 99.8 |
| CC[C@H](C)[C@H](NC(=O)[C@@H](NC(=O)[C@H](CC(=O)O)NC(=O)[C@H](CC(C)C)NC(=O)[C@H](CC(C)C)NC(=O)[C@H](CC(C)C)NC(=O)[C@H](CCCNC(=N)N)NC(=O)[C@H](CC(N)=O)NC(=O)[C@H](CC(N)=O)NC(=O)[C@H](C)NC(=O)[C@H](C)NC(=O)[C@H](CCC(N)=O)NC(=O)[C@H](CCC(N)=O)NC(=O)[C@H](CCCCN)NC(=O)[C@H](CCC(=O)O)NC(=O)[C@H](CCCCN)NC(=O)[C@H](CCC(=O)O)NC(=O)[C@H](CCC(N)=O)NC(=O)[C@H](CCCCN)NC(=O)[C@H](CCC(=O)O)NC(=O)[C@@H](NC(=O)[C@H](CCC(=O)O)NC(=O)[C@@H](NC(=O)[C@H](CCSC)NC(=O)[C@H](CCCCN)NC(=O)[C@H](CCCNC(=N)N)NC(=O)[C@H](CC(C)C)NC(=O)[C@H](CC(C)C)NC(=O)[C@H](Cc1ccc(O)cc1)NC(=O)[C@@H](NC(=O)[C@@H]1CCCN1C(=O)[C@@H](NC(=O)[C@H](CC(=O)O)NC(=O)[C@@H](NC(=O)[C@H](CO)NC(=O)[C@@H](NC(=O)[C@@H]1CCCN1C(=O)[C@@H]1CCCN1C(=O)CNC(=O)[C@@H]1CCC(=O)N1)[C@@H](C)CC)[C@@H](C)CC)C(C)C)[C@@H](C)O)[C@@H](C)CC)[C@@H](C)CC)[C@@H](C)O)C(N)=O [compound 253] | ≥ 1000 | 42 | 41.8 | 86 |
| CC[C@H](C)[C@H](NC(=O)[C@@H](NC(=O)[C@H](CC(=O)O)NC(=O)[C@H](CC(C)C)NC(=O)[C@H](CC(C)C)NC(=O)[C@H](CC(C)C)NC(=O)[C@H](CCCNC(=N)N)NC(=O)[C@H](CC(N)=O)NC(=O)[C@H](CC(N)=O)NC(=O)[C@H](C)NC(=O)[C@H](C)NC(=O)[C@H](CCC(N)=O)NC(=O)[C@H](CCC(N)=O)NC(=O)[C@H](CCCCN)NC(=O)[C@H](CCC(=O)O)NC(=O)[C@H](CCCCN)NC(=O)[C@H](CCC(=O)O)NC(=O)[C@H](CCC(N)=O)NC(=O)[C@H](CCCCN)NC(=O)[C@H](CCC(=O)O)NC(=O)[C@@H](NC(=O)[C@H](CCC(=O)O)NC(=O)[C@@H](NC(=O)[C@H](CCSC)NC(=O)[C@H](CCCCN)NC(=O)[C@H](CCCNC(=N)N)NC(=O)[C@H](CC(C)C)NC(=O)[C@H](CC(C)C)NC(=O)[C@H](CCC(N)=O)NC(=O)[C@H](CC(C)C)NC(=O)[C@@H]1CCCN1C(=O)[C@H](CC(C)C)NC(=O)[C@H](CC(=O)O)NC(=O)[C@@H](NC(=O)[C@H](CO)NC(=O)[C@@H](NC(=O)[C@@H]1CCCN1C(=O)[C@@H]1CCCN1C(=O)CNC(=O)[C@@H]1CCC(=O)N1)[C@@H](C)CC)[C@@H](C)CC)[C@@H](C)CC)[C@@H](C)CC)[C@@H](C)O)C(N)=O [compound 80] |  | 55 |  | 88 |
| CC[C@H](C)[C@H](NC(=O)[C@@H](NC(=O)[C@H](CC(=O)O)NC(=O)[C@H](CC(C)C)NC(=O)[C@H](CC(C)C)NC(=O)[C@H](CC(C)C)NC(=O)[C@H](CCCNC(=N)N)NC(=O)[C@H](CC(N)=O)NC(=O)[C@@H](NC(=O)[C@@H](NC(=O)[C@H](C)NC(=O)[C@H](CCC(N)=O)NC(=O)[C@H](CCC(N)=O)NC(=O)[C@H](CCCCN)NC(=O)[C@H](CCC(=O)O)NC(=O)[C@H](CCCCN)NC(=O)[C@H](CCC(=O)O)NC(=O)[C@H](CCC(N)=O)NC(=O)[C@H](CCCCN)NC(=O)[C@H](CCC(=O)O)NC(=O)[C@@H](NC(=O)[C@H](CCC(=O)O)NC(=O)[C@@H](NC(=O)[C@H](CCSC)NC(=O)[C@H](CCCCN)NC(=O)[C@H](CCCNC(=N)N)NC(=O)[C@H](CC(C)C)NC(=O)[C@H](CC(C)C)NC(=O)[C@H](CCC(N)=O)NC(=O)[C@H](Cc1ccccc1)NC(=O)[C@@H]1CCCN1C(=O)[C@H](CC(C)C)NC(=O)[C@H](CC(=O)O)NC(=O)[C@@H](NC(=O)[C@H](CO)NC(=O)[C@@H](NC(=O)[C@@H]1CCCN1C(=O)[C@@H]1CCCN1C(=O)CNC(=O)[C@@H]1CCC(=O)N1)[C@@H](C)CC)[C@@H](C)CC)[C@@H](C)CC)[C@@H](C)CC)[C@@H](C)O)[C@@H](C)O)[C@@H](C)O)C(N)=O [compound 13] |  | 69 |  | 79 |
| CC[C@H](C)[C@H](NC(=O)[C@H](CCCNC(=N)N)NC(=O)[C@H](C)NC(=O)[C@H](CC(N)=O)NC(=O)[C@@H](NC(=O)[C@@H](NC(=O)[C@H](C)NC(=O)[C@H](CCC(N)=O)NC(=O)[C@H](CCC(N)=O)NC(=O)[C@H](CCCCN)NC(=O)[C@H](CCC(=O)O)NC(=O)[C@H](CCCCN)NC(=O)[C@H](CCC(=O)O)NC(=O)[C@H](CCC(N)=O)NC(=O)[C@H](CCCCN)NC(=O)[C@H](CCC(=O)O)NC(=O)[C@@H](NC(=O)[C@H](CCC(=O)O)NC(=O)[C@@H](NC(=O)[C@H](CCSC)NC(=O)[C@H](CCCCN)NC(=O)[C@H](CCCNC(=N)N)NC(=O)[C@H](CC(C)C)NC(=O)[C@H](CC(C)C)NC(=O)[C@H](CCC(=O)O)NC(=O)[C@H](CC(C)C)NC(=O)[C@@H]1CCCN1C(=O)[C@H](CC(C)C)NC(=O)[C@H](CC(=O)O)NC(=O)[C@@H](NC(=O)[C@H](CO)NC(=O)[C@@H](NC(=O)[C@@H]1CCCN1C(=O)[C@@H]1CCCN1C(=O)CNC(=O)[C@@H]1CCC(=O)N1)[C@@H](C)CC)[C@@H](C)CC)[C@@H](C)CC)[C@@H](C)CC)[C@@H](C)O)[C@@H](C)O)C(=O)N[C@@H](CC(C)C)C(=O)N[C@@H](C)C(=O)N[C@@H](CCCNC(=N)N)C(=O)N[C@H](C(N)=O)C(C)C [compound 143] |  | 100 |  | 85.5 |
